# Values quoted from earlier work as cited in paper PMC8963331 (Toxicological Sciences, 2022).
# Conditions: mice; 10 mg/kg oral; ref Sandborn et al., 2020; cited from earlier work
smiles,measurement,value
"C[C@@H]1CCN(C(=O)CC#N)C[C@@H]1N(C)c1ncnc2[nH]ccc12 [tofacitinib, reference compound]",colon:plasma AUC ratio,41
